For this assay, the target named is Mu-type opioid receptor (Rattus norvegicus, UniProt P33535). In words: Binding affinity to mu-opioid receptor of rat brain using [3H]DAMGO as radioligand.

Amino acid sequences for entries named in this document (tags omitted).
UniProt P33535, whole entry: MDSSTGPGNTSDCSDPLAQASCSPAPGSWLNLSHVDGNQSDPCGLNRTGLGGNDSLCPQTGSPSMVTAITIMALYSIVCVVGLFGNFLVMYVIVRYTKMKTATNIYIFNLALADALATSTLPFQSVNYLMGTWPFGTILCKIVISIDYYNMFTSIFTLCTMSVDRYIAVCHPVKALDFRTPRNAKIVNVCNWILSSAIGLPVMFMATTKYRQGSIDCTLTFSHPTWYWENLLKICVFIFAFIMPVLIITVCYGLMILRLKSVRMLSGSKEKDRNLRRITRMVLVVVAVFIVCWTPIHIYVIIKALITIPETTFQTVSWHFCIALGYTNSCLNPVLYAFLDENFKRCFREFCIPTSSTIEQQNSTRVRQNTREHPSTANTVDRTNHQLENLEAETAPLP

The results in this text go back to ChEMBL document CHEMBL1134559 (J Med Chem, 2001).

pKi: −log10 of the molar value.

As to `Oc1ccc2c3c1O[C@H]1c4[nH]c5c(c4C[C@@]4(O)[C@@H](C2)N(CC2CC2)CC[C@]314)C[C@@]1(O)[C@H]2Cc3ccc(O)c4c3[C@@]1(CCN2CC1CC1)[C@H]5O4` [NORBINALTORPHIMINE], the pKi (in general, the Ki on a negative log10 scale, so that one unit is a factor of ten) is 7.19.
